## AlphaSeq binding of Ab-14 heavy chain variants to a spike HR2 peptide

Source: Li et al. 2023 (doi:10.1038/s41467-023-39022-2), MIT Lincoln Laboratory and A-Alpha Bio; data file from the FLAb repository.

The target is the same throughout: PDVDLGDISGINAS, from the HR2 region of SARS-CoV-2 spike.

The variants keep the light chain, the linker and the frameworks of Ab-14 (scFv order VH, a 15-residue (Gly4Ser)3 linker, VL).
VH: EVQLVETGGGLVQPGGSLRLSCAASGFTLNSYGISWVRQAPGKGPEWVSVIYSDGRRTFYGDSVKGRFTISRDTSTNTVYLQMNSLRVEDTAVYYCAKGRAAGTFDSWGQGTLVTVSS
VL: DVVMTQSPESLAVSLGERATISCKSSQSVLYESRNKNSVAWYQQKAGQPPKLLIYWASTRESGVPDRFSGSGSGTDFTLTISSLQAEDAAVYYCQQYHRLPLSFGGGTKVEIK

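The parent was found by panning a naive human phage display library on the peptide. These sequences belong to a second round, designed from the earlier measurements on random variants of the parent. Group labels follow the data file (Ctrl: baseline library sampled from a position-specific scoring matrix, with some repeated check sequences; Rand: our label for a block that the file lists under HC and that is probably the random mutants of the ten best first-round binders; GP: Gaussian process model; GPLM: also part of the Gaussian process libraries; HC: hill climbing; Gen: genetic algorithm; Gibbs: Gibbs sampling; a sequence that several methods proposed may carry one label only). AlphaSeq pools MATa yeast showing the antibodies with MATalpha yeast showing the peptide. The frequency of each diploid, read from paired DNA barcodes, reflects how well the two displayed proteins bind. The ratio of observed to expected reads was calibrated, replicate by replicate, on BCL2-family standards whose Kd was known from biolayer interferometry. Mating was done six times.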

Each variant is given by its three heavy chain CDRs, as the data file delimits them; those of the parent are GFTLNSYGIS, VIYSDGRRTFYGDSVK, GRAAGTFDS.
This list holds designs with at most six substitutions.
Each Kd is an estimate from the mating assay, the geometric mean of the replicates in which the pair was seen; lower is stronger.
A pair that was not seen in any replicate is written "nd"; this usually means weak binding, but a binder can also be missed.
Some sequences occur more than once in the pool; their replicates are pooled.
A sequence measured in both rounds can read differently, since the two assays cover different ranges.
The authors averaged sequences with at least three values out of six and counted those with two or fewer as poor binders.
Empty control strains, which show no peptide, gave a signal in 1% of pairings with all heavy chain designs; the median was 120 nM and 95% of these signals were weaker than 7.0 nM. No background was subtracted.
Of ten entries with the parent sequence, four were seen in most replicates (averages 2.2 nM to 240 nM), three in one and three in none, so single entries are noisy.

With GFTLNDYGIS / VIYSDGRRTFYDDSVK / GRAALTFIS [Rand] the result was nd (0 of 6 replicates). With GYTLNEYGIS / VIYSDGRRTMYSDSVK / GRAAGTFDS [GP_HC] the result was 200 nM (2 of 6 replicates). Variant GFNLNSYGIS / VIYSDGRRTFYDDSVK / GWMAGTFDS [GP_Gibbs] gave 1.8 nM (1 of 6 replicates). Variant GFALNSYGIS / VIYSDGRRTFYGDSVK / GKTAGTFDS [GPLM_Gibbs] showed 11 nM (4 of 6 replicates). Variant GFGLNSYGIS / VIYSDGRRTFYADSVK / GQTAGTFDS [GPLM_Gen] showed 930 pM (6 of 6 replicates). Variant GFTLNSYGIS / VIYSDGRRTGYGDSVK / GRAAGTFDS [Ctrl] showed 210 nM (6 of 6 replicates). Variant GFELNDYGIS / VIYSDGRRTFYKDSVK / GRTAGTFDS [GP_Gen] gave 1.1 nM (6 of 6 replicates). With GFDLNSYGIS / VIYSDGRRTFYQDRVK / GRIAGTFDS [GP_Gibbs] the result was 13 nM (2 of 6 replicates).

Variant GFQLNSYGIS / VIYSDGRRTFYDDSVK / GQLAGTFDS [GPLM_HC] showed 5.6 nM (6 of 6 replicates). With GFQLNSYGIS / VIYSDGRRTFYIDSVK / GRQAGTFDS [GPLM_Gibbs] the result was 48 nM (1 of 6 replicates). Variant GFTLNEYGIS / VIYSDGQRTFYGDSVK / GRAAGTFDS [Ctrl+GPLM_HC] gave 1.5 nM (12 of 12 replicates). For GFTLESYGIS / VIYSDGRRTFYADSVK / GQAAGTFDS [GPLM_Gen], the assay gave 6.5 nM (6 of 6 replicates). With MFSLNSYGIS / VIYADGRRTFYGDSVK / GQAAGTFDK [GP_Gibbs] the result was 15 nM (5 of 6 replicates). With GFELNMYGIS / VIYSDGRRTFYIDSVK / GQAAGTFDS [GPLM_Gibbs] the result was 2.8 nM (1 of 6 replicates). Variant GFDLNSYGIS / VIYSDGRRTFYADSVK / GKAAGTFDT [GPLM_Gibbs] showed 970 pM (6 of 6 replicates). For GFVLNEYGIS / VIYSDGRRTFYHDSVK / GRAAGTFDS [GPLM_Gibbs], the assay gave 5.6 nM (4 of 6 replicates).

For GFNLNSYGIS / VIYSDGRRTFYGDSVK / GSAAGTFDL [GP_Gibbs], the assay gave 8.4 nM (6 of 6 replicates). Variant GFTLNSYGIS / VIYSDGVRTFYGDSVK / GRAAGIFDM [Ctrl] gave nd (0 of 6 replicates). With GFTLNSYGIS / VIYSDGRRTMYGDSVK / GRAAHTFDS [Ctrl] the result was nd (0 of 6 replicates). For GFTLDSYGIS / VIYADGRRTFYGDSVK / GRAAGTFDR [GP_HC], the assay gave 1.4 nM (6 of 6 replicates). For GFPLNEYGIS / VIYSDGRRTFYGDSVK / GRTAGTFDT [GPLM_Gen], the assay gave 1.8 nM (6 of 6 replicates). Variant GFSLNSYGIS / VIYSDGRRTFYGDSVK / GMVAGTFDS [GPLM_Gen] gave 1.3 nM (6 of 6 replicates). Variant GFDLNSYGIS / VIYSDGRRTFYGDSVK / GRAAGYFMS [GPLM_HC] gave nd (0 of 6 replicates). With GFTLNDYGIS / VIYSDGRRTFYGDSVK / GKIAGTFDS [GPLM_Gibbs] the result was 1.8 nM (6 of 6 replicates).

For GFTLNSYGIS / VIYSDGRRTFYGGSVK / GRAAGTFDS [Ctrl], the assay gave nd (0 of 6 replicates). For GFTLNSYGIS / VIYSDGRRTFYQDSVK / GRAATTVDS [Ctrl], the assay gave nd (0 of 6 replicates). Variant HFTLNEYGIS / VIYSDGRRTFYGDSVK / GRAAVTFDT [GP_HC] showed nd (0 of 6 replicates). Variant GFSLKSYGIS / VIYADGRRTFYGDNVK / GRTAGTFDS [GP_Gibbs] showed 1.8 nM (6 of 6 replicates). Variant GFSLNWYGIS / VIYSDGRRTYYIDSVK / GRAAGTFDS [GP_HC] gave 16 nM (1 of 6 replicates). Variant GFELNSYGIS / VIYSDGRRTAYRDSVK / GRTAGTFDS [GP_Gibbs] gave 3.4 nM (6 of 6 replicates).

The first 4 entries again:

For GFTLNDYGIS / VIYSDGRRTFYDDSVK / GRAALTFIS [Rand], the assay gave nd (0 of 6 replicates).
For GYTLNEYGIS / VIYSDGRRTMYSDSVK / GRAAGTFDS [GP_HC], the assay gave 200 nM (2 of 6 replicates).
For GFNLNSYGIS / VIYSDGRRTFYDDSVK / GWMAGTFDS [GP_Gibbs], the assay gave 1.8 nM (1 of 6 replicates).
For GFALNSYGIS / VIYSDGRRTFYGDSVK / GKTAGTFDS [GPLM_Gibbs], the assay gave 11 nM (4 of 6 replicates).